Paper PMC9132451 (Science Advances, 2022)

Molecular target: T1, GST-tagged ubiquitin (UniProt P0CG47 1-76)
T1 construct: ubiquitin (the cut product of the ubiquitin precursors); also called GST-ubiquitin; source: bought: Boston Biochem, catalog no; U-540
Assay: pull-down; in vitro binding: 5 μg recombinant purified GST or GST-fusion protein (on beads) with 5 μg His-fusion protein in 300 μl 20 mM HEPES pH 7.4, 100 mM NaCl, 2 mM MgCl2, 0.1% saponin, 1 hour, 4°C; immunoblotting with GST- and His-tag antibodies
Settings: both partners purified

binding result: binds
B1: His-tagged ANTH domain of HIP1 (domain or fragment, Homo sapiens, UniProt O00291 1-314, looked up)
chain: MDRMASSMKQVPNPLPKVLSRRGVGAGLEAAERESFERTQTVSINKAINTQEVAVKEKHARTCILGTHHEKGAQTFWSVVNRLPLSSNAVLCWKFCHVFHKLLRDGHPNVLKDSLRYRNELSDMSRMWGHLSEGYGQLCSIYLKLLRTKMEYHTKNPRFPGNLQMSDRQLDEAGESDVNNFFQLTVEMFDYLECELNLFQTVFNSLDMSRSVSVTAAGQCRLAPLIQVILDCSHLYDYTVKLLFKLHSCLPADTLQGHRDRFMEQFTKLKDLFYRSSNLQYFKRLIQIPQLPENPPNFLRASALSEHISPVVVI
notes: HIP1 ANTH domain, Homo sapiens, amino acids 1 to 314, in pET-28a(+); also called HIP1-ANTH domain
